Laboratory results published in patent publication US20100129370A1, “Trefoil Factors and Methods of Treating Proliferation Disorders Using Same” (priority 2004, published 2010).

Test system: CEACAM6 gene
Assay: CEACAM6 luciferase reporter assay in MCF-7 cells
Type: cell-based, human
Details: MCF-7 co-transfected, expression plasmid alone
From the text: c-Myc episode tagged human TFF3 expression vector pIRESneo3-TFF3-Myc was constructed as follows: the human TFF3 cDNA was amplified by PCR using the primer set, 5′-ATGGCTGCCAGAGCGCTCTGC-3′ (sense) (SEQ ID NO:39) and 5′-AAGGTGCATTCTGCTTCCTGCAG-3′ (antisense) (SEQ ID NO:40) and cloned into pIRESneo3 vector (Invitrogen). A sequence coding for 2 copies of c-Myc tag EQKLISEEDL (SEQ ID NO:41) was inserted in frame with the last amino acid of TFF3. The C57F mutant expression vector of TFF3, pIRESneo3-TFF3-C57F-Myc, was similarly made by using the same sense primer and an antisense primer of 5′-AAGGTGAATTCTGCTTCCTGCAGGG-3′ (SEQ ID NO:42).
The human serum albumin cDNA was also similarly cloned into pIRESneo3 vector with 2 copies of the c-Myc-tag at its C-terminal using primers: 5′-ATGAAGTGGGTAACCTTTATTTCC-3′ (sense) (SEQ ID NO:43) and 5′-AAGCCTAAGGCAGCTTGACTTG-3′ (antisense) (SEQ ID NO:44). […]
MCF-7 cells were co-transfected with CEACAM6 luciferase report plasmid as well as expression plasmids of TFF3, c-Myc-Tagged (TFF3-tag), N-terminal deleted TFF3 (TFF3-Delta-1 and -2), TFF3-46R-47R and TFF3-C57F mutant, and TFF3-C57F-hSA (human serum albumin) fusion protein by Saint Mix transfection reagent as well as the empty vector as control. Luciferase activity was measured using a kit (Promega). […]

Substance: hSA: human serum albumin expressed from pIRESneo3 vector with c-Myc tags
- effect on CEACAM6 expression: little effect
